Test results as given in PMC6326798 (2018).

B1: hsCENP-H WT (recombinant, GST pull-down) [human] / GST-hsCENP-K^FL (hsCENP-K full length) [human] (parent complex)
chain 1: MEEQPQMQDADEPADSGGEGRAGGPPQVAGAQAACSEDRMTLLLRLRAQTKQQLLEYKSMVDASEEKTPEQIMQEKQIEAKIEDLENEIEEVKVAFEIKKLALDRMRLSTALKKNLEKISRQSSVLMDNMKHLLELNKLIMKSQQESWDLEEKLLDIRKKRLQLKQASESKLLEIQTEKNKQKIDLDSMENSERIKIIRQNLQMEIKITTVIQHVFQNLILGSKVNWAEDPALKEIVLQLEKNVDMM
chain 2: MNQEDLDPDSTTDVGDVTNTEEELIRECEEMWKDMEECQNKLSLIGTETLTDSNAQLSLLIMQVKCLTAELSQWQKKTPETIPLTEDVLITLGKEEFQKLRQDLEMVLSTKESKNEKLKEDLEREQRWLDEQQQIMESLNVLHSELKNKVETFSESRIFNELKTKMLNIKEYKEKLLSTLGEFLEDHFPLPDRSVKKKKKNIQESSVNLITLHEMLEILINRLFDVPHDPYVKISDSFWPPYVELLLRNGIALRHPEDPTRIRLEAFHQ

Variants of: B1
Experiment: GST pull-down; parent: 1; read off a plot
Work on chain 1 MEEQPQMQDADEPADSGGEGRAGGPPQVAGAQAACSEDRMTLLLRLRAQTKQQLLEYKSMVDASEEKTPEQIMQEKQIEAKIEDLENEIEEVKVAFEIKKLALDRMRLSTALKKNLEKISRQSSVLMDNMKHLLELNKLIMKSQQESWDLEEKLLDIRKKRLQLKQASESKLLEIQTEKNKQKIDLDSMENSERIKIIRQNLQMEIKITTVIQHVFQNLILGSKANWAEDPAAKEIVLQLEKNVDMM [chain 1 V225A, chain 1 L233A] yielded a ratio to parent of roughly 0.7.
chain 1 MEEQPQMQDADEPADSGGEGRAGGPPQVAGAQAACSEDRMTLLLRLRAQTKQQLLEYKSMVDASEEKTPEQIMQEKQIEAKIEDLENEIEEVKVAFEIKKLALDRMRLSTALKKNLEKISRQSSVLMDNMKHLLELNKLIMKSQQESWDLEEKLLDIRKKRLQLKQASESKLLEIQTEKNKQKIDLDSMENSERIKIIRQNLQMEIKITTVIQHVFQNLILGSKVNAAEDPALKEIVLQLEKNVDMM [chain 1 W227A] gave a ratio to parent of roughly 1.1.
Variant chain 1 MEEQPQMQDADEPADSGGEGRAGGPPQVAGAQAACSEDRMTLLLRLRAQTKQQLLEYKSMVDASEEKTPEQIMQEKQIEAKIEDLENEIEEVKVAFEIKKLALDRMRLSTALKKNLEKISRQSSVLMDNMKHLLELNKLIMKSQQESWDLEEKLLDIRKKRLQLKQASESKLLEIQTEKNKQKIDLDSMENSERIKIIRQNLQMEIKITTVIQHVFQNLILGSKANWAEDPALKEIVLQLEKNVDMM [chain 1 V225A] has a ratio to parent of roughly 0.87.
Variant chain 1 MEEQPQMQDADEPADSGGEGRAGGPPQVAGAQAACSEDRMTLLLRLRAQTKQQLLEYKSMVDASEEKTPEQIMQEKQIEAKIEDLENEIEEVKVAFEIKKLALDRMRLSTALKKNLEKISRQSSVLMDNMKHLLELNKLIMKSQQESWDLEEKLLDIRKKRLQLKQASESKLLEIQTEKNKQKIDLDSMENSERIKIIRQNLQMEIKITTVIQHVFQNLILGSKVNWAEDPAAKEIVLQLEKNVDMM [chain 1 L233A] has a ratio to parent of roughly 0.89.
chain 1 MEEQPQMQDADEPADSGGEGRAGGPPQVAGAQAACSEDRMTLLLRLRAQTKQQLLEYKSMVDASEEKTPEQIMQEKQIEAKIEDLENEIEEVKVAFEIKKLALDRMRLSTALKKNLEKISRQSSVLMDNMKHLLELNKLIMKSQQESWDLEEKLLDIRKKRLQLKQASESKLLEIQTEKNKQKIDLDSMENSERIKIIRQNLQMEIKITTVIQHVFQNLILGSKVNWAEDPALKEIVAQLEKNVDMM [chain 1 L238A] was tested, and the ratio to parent was roughly 1.1.
With chain 1 MEEQPQMQDADEPADSGGEGRAGGPPQVAGAQAACSEDRMTLLLRLRAQTKQQLLEYKSMVDASEEKTPEQIMQEKQIEAKIEDLENEIEEVKVAFEIKKLALDRMRLSTALKKNLEKISRQSSVLMDNMKHLLELNKLIMKSQQESWDLEEKLLDIRKKRLQLKQASESKLLEIQTEKNKQKIDLDSMENSERIKIIRQNLQMEIKITTVIQHVFQNAILGSKVNWAEDPAAKEIVLQLEKNVDMM [chain 1 L219A, chain 1 L233A] the ratio to parent was roughly 0.61.
chain 1 MEEQPQMQDADEPADSGGEGRAGGPPQVAGAQAACSEDRMTLLLRLRAQTKQQLLEYKSMVDASEEKTPEQIMQEKQIEAKIEDLENEIEEVKVAFEIKKLALDRMRLSTALKKNLEKISRQSSVLMDNMKHLLELNKLIMKSQQESWDLEEKLLDIRKKRLQLKQASESKLLEIQTEKNKQKIDLDSMENSERIKIIRQNLQMEIKITTVIQHVFQNAILGSKVNWAEDPALKEIVLQLEKNVDMM [chain 1 L219A] gave a ratio to parent of roughly 0.82.
Variant chain 1 MEEQPQMQDADEPADSGGEGRAGGPPQVAGAQAACSEDRMTLLLRLRAQTKQQLLEYKSMVDASEEKTPEQIMQEKQIEAKIEDLENEIEEVKVAFEIKKLALDRMRLSTALKKNLEKISRQSSVLMDNMKHLLELNKLIMKSQQESWDLEEKLLDIRKKRLQLKQASESKLLEIQTEKNKQKIDLDSMENSERIKIIRQNLQMEIKITTVIQHVFQNAILGSKANWAEDPALKEIVLQLEKNVDMM [chain 1 L219A, chain 1 V225A] has a ratio to parent of roughly 0.7.
